# Apparent affinities of Ab-95 variants for a coronavirus HR2 peptide

Antigen: PDVDLGDISGINAS, a 14-residue peptide of the SARS-CoV-2 spike HR2 region.

Parent: Ab-95, a human scFv built as VH, the linker GGGGSGGGGSGGGGS, VL. Only the CDRs of the light chain vary.
VH: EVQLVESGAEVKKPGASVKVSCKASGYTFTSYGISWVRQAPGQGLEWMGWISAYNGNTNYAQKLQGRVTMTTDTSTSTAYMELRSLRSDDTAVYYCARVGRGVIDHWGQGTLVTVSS
VL: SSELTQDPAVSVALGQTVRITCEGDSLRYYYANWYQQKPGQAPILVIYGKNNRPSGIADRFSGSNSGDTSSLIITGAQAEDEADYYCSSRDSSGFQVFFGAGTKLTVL

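The starting antibody came from a phage panning campaign against this peptide. Variants in AAYL52 differ from the parent at up to three CDR positions; double and triple changes were sampled at random. In AlphaSeq, yeast of one mating type display the scFv and yeast of the other type display the target. After mating in shaken culture at 30 °C for 16 h, diploids were selected and their barcode pairs sequenced. The ratio of observed to expected reads was calibrated, replicate by replicate, on BCL2-family standards whose Kd was known from biolayer interferometry. Each pool was mated in three replicate cultures.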

Positions count from residue 1 of the parent VL; E23G puts G in place of E.
Numbers give log10(Kd / nM), so 0 is 1 nM and 3 is 1 µM. Smaller is tighter.
Replicates are averaged; those with no signal do not enter the mean.
"nd" means that the variant was in the library but no mating with the target was seen in any replicate; the authors take this as a sign of poor binding, and no number exists.

| # | mean, log10 nM | replicates with signal | changes |
|---|---|---|---|
| 1 | 2.14 | 3 of 3 | E23G+R28K+V97G |
| 2 | 4.58 | 1 of 3 | G24V+L27R+N33L |
| 3 | nd | 0 of 3 | L27C+S88I+D91A |
| 4 | 1.90 | 3 of 3 | A32T+D91S+Q96S |
| 5 | 3.47 | 3 of 3 | S26H+R53T |
| 6 | nd | 0 of 3 | N51Y+N52A+V97W |
| 7 | nd | 0 of 3 | Y29R+G49S+S89I |
| 8 | 3.27 | 3 of 3 | K50V+R53T+S89A |
| 9 | 4.25 | 2 of 3 | N33V+R90F+F98G |
| 10 | 2.59 | 3 of 3 | S89G+R90I+F95G |
| 11 | 3.24 | 3 of 3 | Y30V+S88D+V97I |
| 12 | nd | 0 of 3 | D25S+A32Q+S92H |
| 13 | 0.90 | 3 of 3 | Y30K+S55Q |
| 14 | 3.00 | 1 of 3 | D25V+N51C+G94R |
| 15 | 3.90 | 2 of 3 | S26Y+S55L |
| 16 | 3.39 | 1 of 3 | L27F+Y29Q+P54Q |
| 17 | 3.68 | 3 of 3 | E23A+S26M+P54E |
| 18 | nd | 0 of 3 | L27R+G49C+D91N |
| 19 | 2.97 | 3 of 3 | Y29N+Y31G+G94L |
| 20 | nd | 0 of 3 | R28T+P54F+V97T |
| 21 | 1.67 | 3 of 3 | D25N+Y31T+F98A |
| 22 | nd | 0 of 3 | L27E+Y31H+V97N |
| 23 | 4.18 | 2 of 3 | S26M+Y31I+V97Q |
| 24 | 3.03 | 3 of 3 | K50G+N51V+D91T |
| 25 | 3.99 | 3 of 3 | P54A+G94P+F98K |
| 26 | 3.06 | 3 of 3 | E23L+K50N+S92C |
| 27 | 1.67 | 3 of 3 | N52E+R90H+G94V |
| 28 | 4.59 | 2 of 3 | Y31H+A32Q+G49T |
| 29 | 3.82 | 2 of 3 | G49R+S93A+G94R |
| 30 | 2.69 | 2 of 3 | Y30I+S88I+D91W |
| 31 | 0.94 | 3 of 3 | R28A+Y31N+K50M |
| 32 | 4.22 | 1 of 3 | G49I+S93R |
| 33 | 4.28 | 2 of 3 | N51H+S88T+F95E |
| 34 | 2.99 | 3 of 3 | S55G+S88F |
| 35 | 4.60 | 1 of 3 | G24V+R53E+P54V |
| 36 | 2.75 | 3 of 3 | S89K+R90G+F95I |
| 37 | 2.88 | 3 of 3 | Y31E+K50C+F95N |
| 38 | 2.99 | 2 of 3 | G24S+R53P |
| 39 | 2.20 | 3 of 3 | G24Q+Y29A+Y31L |
| 40 | 2.90 | 3 of 3 | R28I+Y29G+S89W |
| 41 | 4.75 | 2 of 3 | N51F+N52F+S88Q |
| 42 | 5.87 | 1 of 3 | G24T+G49D+S55H |
| 43 | 5.68 | 1 of 3 | Y31H+R53A+S88K |
| 44 | 3.39 | 2 of 3 | S26I+S93Q+Q96T |
| 45 | nd | 0 of 3 | A32M+G49Y+P54L |
| 46 | 4.06 | 2 of 3 | R90Q+S93P+G94L |
| 47 | 4.77 | 2 of 3 | R28K+S93P+F98Y |
| 48 | 2.29 | 3 of 3 | D25T+G49D+K50G |
| 49 | nd | 0 of 3 | E23F+G24Y+V97C |
| 50 | nd | 0 of 3 | N33D+N51D+Q96K |
| 51 | 2.47 | 3 of 3 | G24W+Y30A+D91H |
| 52 | 2.08 | 3 of 3 | Y30V+V97G+F98G |
| 53 | 3.09 | 3 of 3 | S89C+S93V |
| 54 | 2.18 | 3 of 3 | Y30R+S88C+S92Q |
| 55 | 3.49 | 3 of 3 | D25W+S89T+F98K |
| 56 | 2.44 | 3 of 3 | D25C+S88Y+G94Q |
| 57 | 4.44 | 1 of 3 | A32K+G49S+N51D |
| 58 | 3.11 | 2 of 3 | S89V+R90S+V97G |
| 59 | 3.51 | 3 of 3 | D25L+R53N+S55A |
| 60 | nd | 0 of 3 | R53D+S55L+R90I |
| 61 | 2.73 | 3 of 3 | R28M+F95V |
| 62 | 3.26 | 3 of 3 | K50L+S88E+S93A |
| 63 | nd | 0 of 3 | D25A+N33L |
| 64 | 1.89 | 3 of 3 | Y29S+D91G |
| 65 | 3.11 | 3 of 3 | D25K+D91K |
| 66 | 3.89 | 3 of 3 | E23L+R90I+V97G |
| 67 | 3.82 | 3 of 3 | D91E+Q96R |
| 68 | 2.96 | 3 of 3 | G24V+K50E+F95Q |

Repeated from above, the 7 best binders with a signal in all replicates:

changes,"mean, log10 nM",replicates with signal
Y30K+S55Q,0.90,3 of 3
R28A+Y31N+K50M,0.94,3 of 3
D25N+Y31T+F98A,1.67,3 of 3
N52E+R90H+G94V,1.67,3 of 3
Y29S+D91G,1.89,3 of 3
A32T+D91S+Q96S,1.90,3 of 3
Y30V+V97G+F98G,2.08,3 of 3

Background: pairings of library AAYL52 with three empty control strains gave a value in 28% of cases (median 3.91, 5th percentile 2.90). Values in that range, when seen in few replicates, are hard to tell from nonspecific mating.

From the AlphaSeq antibody data of Engelhart et al. 2022 (doi:10.1038/s41597-022-01779-4), copy in the FLAb collection.